We go through 1 compound from patent US10400004B2, “Chemical synthesis method of phillyrin” (priority 2014, dated 2019).

Each structure is given as a SMILES string.

This series has as its system Vero cells. Put plainly: Drug cytotoxicity assay (MTT) on Vero cells. It counts as cell-based, African green monkey. To be noted: 72 h, Probit regression. As to the method:
Vero cells were subcultured for 1-2 days to form a film. […] The digestion was drained after needle-like holes occurred on the cell surface, then cells were dispersed with a few milliliters of medium, counted, then diluted to about 5×10^7 cells/L with DMEM containing 10% fetal bovine serum and transferred to a 96-pore culture plate until monolayer formed.
Cytotoxicity test: the drugs were diluted according to the concentrations shown in Table 1-1 for cytotoxicity assays.
Different concentrations of drugs diluted with the above maintenance medium (DMEM containing 2% fetal calf serum) were added dropwise to Vero monolayer cells with 0.2 ml per pore, and for each concentration, the drugs were added in sextuplicate in 6 pores respectively. In addition, 6 pores were set up as normal control (without drugs) while another 6 pores as blank control (medium only). Cells were grown in a 37° C. incubator under 5% CO2. CPE was visualized under the invert microscope and recorded daily. […] Then the culture was shaken for 5 min, measured OD value at 492 nm to calculate the cell survival ratio. The cell survival ratio was analyzed using a Probit regression model in SPSS 18.0 statistical software, and the maximal nontoxic concentration (TC0) and median toxic concentration (TC50) of drugs against Vero cells were calculated.

`NC(=O)c1ncn([C@@H]2O[C@H](CO)[C@@H](O)[C@H]2O)n1` [Ribavirin]: the “Maximal non-cytotoxic concentration (TC0)” value stood at 0.065 g/L.
